Measurements reported in patent US20250196055A1, “PROCESS FOR CAPTURING CO2 FROM A MOBILE SOURCE USING AN AMINO ACID SOLVENT” (SAUDI ARABIAN OIL COMPANY, priority 2021, published 2025).

Experiments:
[1] = Preliminary solubility testing of CO2-loaded amino/amino-sulfonic acid solutions (precipitation temperature); type: physicochemical; settings: ambient pressure, test range −10° C. to 40° C.
Procedure: Preliminary solubility testing was carried out with various amino and amino-sulfonic acids and blends thereof to determine the propensity for solids precipitation. These blends were loaded with CO2 under representative process conditions: a CO2 loading from 0.35 to 0.45 mol CO2/mol alkalinity at ambient pressure and a temperature from −10° C. to 40° C. CO2 loading was achieved by addition of potassium bicarbonate instead of some potassium hydroxide as the neutralizing agent. The loading (in mol CO2 per mol alkalinity) was determined from the following equation: […]

[2] = Solubility testing in gas bubbler/sparger with continuous 9 mol % CO2 in N2; settings: 9 mol % CO2, ambient conditions

## NCCS(=O)(=O)O [3 m TAU, taurine]
[1]; Loading 0.35 mol CO2/mol alk.
  Precipitation Temperature: 13 °C
[1]; Loading 0.40 mol CO2/mol alk.
  Precipitation Temperature: 31 °C
[1]; Loading 0.45 mol CO2/mol alk.
  Precipitation Temperature: 37 °C
[2]
  precipitation when 9 mol % CO2 continuously injected (in words): showed signs of precipitation
